Target: human macrodomain TARG1 (human, UniProt Q9Y530 1-152)
Experiment: AlphaScreen or HTRF
Details: both partners purified

Sequences of proteins named here, by UniProt entry; tags and fusion partners are left off. A change or cut given only in a name is not applied to a line headed by its entry.
UniProt Q9Y530: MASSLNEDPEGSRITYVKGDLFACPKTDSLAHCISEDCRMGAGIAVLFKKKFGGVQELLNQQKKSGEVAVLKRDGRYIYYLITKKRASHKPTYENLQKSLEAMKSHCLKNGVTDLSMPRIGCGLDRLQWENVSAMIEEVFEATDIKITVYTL

## ARTKQTARKS [ADPr-conjugated biotin peptide ARTK(Bio)QTARK(Aoa-RADP)S]
  binding result: binds
